Source: ChEMBL document CHEMBL4396940, “Synthesis and biological evaluation of 4-(piperid-3-yl)amino substituted 6-pyridylquinazolines as potent PI3Kδ inhibitors” (Bioorg Med Chem, 2019)

What was measured:
Homo sapiens [1] = species on record: Homo sapiens; test: Selectivity ratio of IC50 for inhibition of PI3K beta (unknown origin) to IC50 for inhibition PI3K delta (unknown origin)
Homo sapiens [2] = species on record: Homo sapiens; test: Selectivity ratio of IC50 for inhibition of PI3K alpha (unknown origin) to IC50 for inhibition PI3K delta (unknown origin)
Homo sapiens [3] = species on record: Homo sapiens; test: Selectivity ratio of IC50 for inhibition of PI3K gamma (unknown origin) to IC50 for inhibition PI3K delta (unknown origin)
[4] = biological target: T1, Phosphatidylinositol 4,5-bisphosphate 3-kinase catalytic subunit delta isoform (Homo sapiens) (UniProt O00329); test: Potency index, ratio of i-delalisib IC50 to compound IC50 for inhibition of PI3K delta (unknown origin)
T1 sequence (whole entry): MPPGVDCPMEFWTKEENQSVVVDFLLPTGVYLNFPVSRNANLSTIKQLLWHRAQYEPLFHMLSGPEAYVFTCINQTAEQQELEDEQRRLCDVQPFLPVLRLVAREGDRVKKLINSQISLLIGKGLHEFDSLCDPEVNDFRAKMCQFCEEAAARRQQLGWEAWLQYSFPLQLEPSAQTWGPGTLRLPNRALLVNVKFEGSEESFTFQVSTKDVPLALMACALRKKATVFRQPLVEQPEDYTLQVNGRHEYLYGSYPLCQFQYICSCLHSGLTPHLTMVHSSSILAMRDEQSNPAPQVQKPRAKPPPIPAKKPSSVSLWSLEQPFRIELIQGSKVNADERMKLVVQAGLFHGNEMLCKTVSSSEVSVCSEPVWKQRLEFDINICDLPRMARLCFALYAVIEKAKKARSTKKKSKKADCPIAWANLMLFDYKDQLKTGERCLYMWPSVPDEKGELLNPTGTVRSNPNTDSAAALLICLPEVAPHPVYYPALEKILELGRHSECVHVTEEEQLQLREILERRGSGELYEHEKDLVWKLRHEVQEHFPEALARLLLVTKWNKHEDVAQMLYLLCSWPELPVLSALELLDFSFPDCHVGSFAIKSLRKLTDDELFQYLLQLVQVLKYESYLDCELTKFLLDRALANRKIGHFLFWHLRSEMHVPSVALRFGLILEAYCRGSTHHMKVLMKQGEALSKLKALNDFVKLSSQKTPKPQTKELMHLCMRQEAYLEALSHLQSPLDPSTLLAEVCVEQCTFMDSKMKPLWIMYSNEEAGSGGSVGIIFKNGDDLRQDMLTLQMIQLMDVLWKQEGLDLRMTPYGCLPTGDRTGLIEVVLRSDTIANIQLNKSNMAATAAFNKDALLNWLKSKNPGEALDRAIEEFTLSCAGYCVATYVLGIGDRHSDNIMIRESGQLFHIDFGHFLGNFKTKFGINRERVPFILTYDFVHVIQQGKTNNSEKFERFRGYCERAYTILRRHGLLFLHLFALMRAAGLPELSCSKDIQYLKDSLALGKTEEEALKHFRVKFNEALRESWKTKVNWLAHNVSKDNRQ

Row | SMILES | Ratio IC50 (Homo sapiens [1]) | Ratio IC50 (Homo sapiens [2]) | Ratio IC50 (Homo sapiens [3]) | Ratio IC50 [4]
1 | COc1ncc(-c2ccc3ncnc(N[C@H]4CCCN(C(=O)CN(C)C)C4)c3c2)cc1C#N | 115 | 17 | 192 | 
2 | COc1ncc(-c2ccc3ncnc(N[C@H]4CCCN(C(=O)c5cccnc5)C4)c3c2)cc1C#N | 13 | 170 |  | 2
